ChEMBL document CHEMBL1148008, “Antimicrobial and cytotoxic activity of agelasine and agelasimine analogs” (Bioorg Med Chem, 2007)

System: Escherichia coli
Assay: Antibacterial activity against Escherichia coli ATCC 25922 after 20 hrs by broth microdilution method
Format: functional
How it was run: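 Strains grown 24 h at 35 °C on tryptone-soya agar. Colonies suspended in saline to 0.5 McFarland, then diluted 1:10 in Mueller-Hinton broth (~10⁷ CFU/mL). Inoculum added to twofold dilutions in broth (final 0.125–32 µg/mL) in triplicate. Incubated aerobically at 35 °C for 20 h. MIC is the lowest concentration giving complete growth inhibition. Repeated at least once; gentamycin/streptomycin served as QC.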

GENTAMICIN
MIC: 0.5 µg/mL
